Laboratory results reported in patent US8663646B2, “P53 peptide vaccine” (priority 2007, dated 2014).

Experiments:
[1] = target: HLA-A*0201 (Homo sapiens, UniProt P04439, D140Y/D185E/D98H/E176V/E277Q/G131W/G231S/I119V/I121R/I166T/I218V/L300P/L318F/N151K/N90K/P208A/P217A/Q86G/Q94H/R138H/R169H/T345S); conditions: binding capacity previously determined, cited from earlier work
[2] = target: T1, HLA-A*0301 (Homo sapiens, UniProt P04439); assay: Competition based cellular binding assay, HLA-A*0301 (B-cell line EKR); conditions: for Peptide Binding Affinity: HLA-A*0301, IC50 category
T1 construct: B-cell lines used are: CAA (A*0101), EKR (A*0301), BVR (A*1101), VIJF (A*2401); endogenous in cells; host or cells: B-cell line EKR

[3] = target: T2, HLA-A*1101 (Homo sapiens, UniProt P04439, A114D/D185E/E176A/F33Y/L180Q/S129P/T187R); assay: Competition based cellular binding assay, HLA-A*1101 (B-cell line BVR); conditions: for Peptide Binding Affinity: HLA-A*1101, IC50 category
T2 construct: B-cell lines used are: CAA (A*0101), EKR (A*0301), BVR (A*1101), VIJF (A*2401); endogenous in cells; host or cells: B-cell line BVR

Row | Peptide Binding Affinity [2] | Peptide Binding Affinity [3] | Molecule | Peptide Binding Affinity [1] | further results
1 |  |  | CC(C)C[C@H](NC(=O)[C@@H](NC(=O)[C@H](CC(N)=O)NC(=O)[C@H](CC(N)=O)NC(=O)[C@H](CCC(=O)O)NC(=O)[C@@H]1CCCN1C(=O)[C@H](CC(C)C)NC(=O)[C@H](CC(C)C)NC(=O)[C@@H](N)CCCCN)C(C)C)C(=O)O [p53 24-32] |  | IC50 ([1]; read-out: Peptide Binding Affinity): 5 to 15 µM
2 | high | high | CC(C)C[C@H](NC(=O)[C@H](C)NC(=O)[C@@H]1CCCN1C(=O)[C@H](CO)NC(=O)[C@H](Cc1ccc(O)cc1)NC(=O)[C@@H](NC(=O)[C@@H](N)CS)[C@@H](C)O)C(=O)N[C@@H](CC(N)=O)C(=O)N[C@@H](CCCCN)C(=O)O [p53 124-132] |  | 
3 | high | high | CC[C@H](C)[C@H](NC(=O)[C@H](C)NC(=O)[C@H](CCSC)NC(=O)[C@H](C)NC(=O)[C@H](CCCNC(=N)N)NC(=O)[C@@H](NC(=O)[C@@H](N)CCCNC(=N)N)C(C)C)C(=O)N[C@@H](Cc1ccc(O)cc1)C(=O)N[C@@H](CCCCN)C(=O)O [p53 156-164] |  | HLA binding Affinity (Table 5) ([2]; HLA type A3): high; HLA binding Affinity (Table 5) ([3]; HLA type A11): high
4 |  |  | CC[C@H](C)[C@H](NC(=O)[C@H](CC(C)C)NC(=O)[C@H](Cc1c[nH]cn1)NC(=O)[C@H](CCC(N)=O)NC(=O)[C@@H]1CCCN1C(=O)[C@@H]1CCCN1C(=O)[C@H](C)NC(=O)[C@H](CC(C)C)NC(=O)CN)C(=O)N[C@@H](CCCNC(=N)N)C(=O)N[C@H](C(=O)O)C(C)C [p53 187-197] | high | 
5 |  |  | ALYVDSLFFL [PRA 300-309] | high | 
